The results in this text go back to paper PMC6544337, “Development of chimeric and bifunctional antagonists for CLR/RAMP receptors” (PLoS ONE, 2019).

The chains behind the UniProt entries cited, without tags or fusion partners. Residues count along the entry.
UniProt Q16602, 23-461, chain 1 of 2: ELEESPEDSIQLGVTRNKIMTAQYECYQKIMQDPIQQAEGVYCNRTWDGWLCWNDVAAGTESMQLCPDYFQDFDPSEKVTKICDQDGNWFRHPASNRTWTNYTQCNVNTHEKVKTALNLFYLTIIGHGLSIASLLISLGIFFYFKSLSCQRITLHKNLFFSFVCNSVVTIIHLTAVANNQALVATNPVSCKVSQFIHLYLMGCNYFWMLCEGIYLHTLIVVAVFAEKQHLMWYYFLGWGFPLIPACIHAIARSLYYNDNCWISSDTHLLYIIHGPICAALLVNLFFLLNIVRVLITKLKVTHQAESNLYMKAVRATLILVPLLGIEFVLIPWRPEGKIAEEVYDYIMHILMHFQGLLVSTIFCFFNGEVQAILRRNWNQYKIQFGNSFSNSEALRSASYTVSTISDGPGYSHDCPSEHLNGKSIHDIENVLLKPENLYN

Assay [1] addresses CLR/RAMP2 receptor complex (UniProt Q16602).
Assay [2] addresses CLR/RAMP1 receptor complex (UniProt Q16602).

ADM1-52 (peptide) returned an EC50 of CLR/RAMP2 signalling (CHO-K1 cells, PathHunter β-Arrestin assay) in assay [1] of 12 nM. In assay [2], this substance had an EC50 of CLR/RAMP1 cAMP signalling (1321N1 cells, HitHunter cAMP XS+ assay) of 564 nM.
